The text below walks through data of IntAct's records for PubMed 19632990.

First the molecules themselves.
B1: Ficolin-2 (Homo sapiens), Q15485 (parent)
chain: MELDRAVGVLGAATLLLSFLGMAWALQAADTCPEVKMVGLEGSDKLTILRGCPGLPGAPGPKGEAGTNGKRGERGPPGPPGKAGPPGPNGAPGEPQPCLTGPRTCKDLLDRGHFLSGWHTIYLPDCRPLTVLCDMDTDGGGWTVFQRRVDGSVDFYRDWATYKQGFGSRLGEFWLGNDNIHALTAQGTSELRVDLVDFEDNYQFAKYRSFKVADEAEKYNLVLGAFVEGSAGDSLTFHNNQSFSTKDQDNDLNTGNCAVMFQGAWWYKNCHVSNLNGRYLRGTHGSFANGINWKSGKGYNYSYKVSEMKVRPA

The variants in this assay derive from B1. Conditions: with ptx3_human PTX3, P26022.
Consider T236M, for which the “effect of a mutation on the interaction” value is recorded as “decreasing interaction strength”.
